{"sequences": {"note": "Protein sequences, listed by entry. Tags and fused reporters are not part of them.", "UniProt P30543, whole entry": "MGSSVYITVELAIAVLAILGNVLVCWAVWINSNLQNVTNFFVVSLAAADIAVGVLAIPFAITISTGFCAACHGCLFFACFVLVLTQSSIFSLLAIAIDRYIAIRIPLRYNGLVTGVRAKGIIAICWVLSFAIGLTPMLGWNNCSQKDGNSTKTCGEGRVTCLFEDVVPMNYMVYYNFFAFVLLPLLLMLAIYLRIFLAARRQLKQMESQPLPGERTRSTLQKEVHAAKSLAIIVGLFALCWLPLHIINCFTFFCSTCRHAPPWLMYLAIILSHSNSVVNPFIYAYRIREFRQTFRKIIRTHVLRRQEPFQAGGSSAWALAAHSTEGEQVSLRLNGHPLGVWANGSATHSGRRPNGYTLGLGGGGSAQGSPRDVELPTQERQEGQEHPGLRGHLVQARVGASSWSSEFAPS"}, "source": "ChEMBL document CHEMBL1129447", "about": "“2-alkenyl and 2-alkyl derivatives of adenosine and adenosine-5'-N-ethyluronamide: different affinity and selectivity of E- and Z-diastereomers at A2A adenosine receptors” (J Med Chem, 1996)", "key": {"Adenosine receptor A2a [1]": {"molecular_target": "T1, Adenosine receptor A2a (Rattus norvegicus, UniProt P30543)"}, "Adenosine receptor A2a [2]": {"molecular_target": "T1, Adenosine receptor A2a", "remark": "listed apart in the source"}}}
{"smiles": "CCCCC#Cc1nc(N)c2ncn([C@@H]3O[C@H](CO)[C@@H](O)[C@H]3O)c2n1", "values": [{"measurement": "EC50", "setting": "Adenosine receptor A2a [1]", "value": 79.2, "unit": "nM"}, {"measurement": "Ki", "setting": "Adenosine receptor A2a [2]", "value": 2.2, "unit": "nM"}]}
